This is an account of results in patent US20140221287A1 (AstraZeneca / MedImmune, published 2014).

This assay concerns the target T1, human amylin receptor 3 (AMY3) (human, UniProt P30988 25-474; O60896 24-148).
T1 sequence (looked up) 1: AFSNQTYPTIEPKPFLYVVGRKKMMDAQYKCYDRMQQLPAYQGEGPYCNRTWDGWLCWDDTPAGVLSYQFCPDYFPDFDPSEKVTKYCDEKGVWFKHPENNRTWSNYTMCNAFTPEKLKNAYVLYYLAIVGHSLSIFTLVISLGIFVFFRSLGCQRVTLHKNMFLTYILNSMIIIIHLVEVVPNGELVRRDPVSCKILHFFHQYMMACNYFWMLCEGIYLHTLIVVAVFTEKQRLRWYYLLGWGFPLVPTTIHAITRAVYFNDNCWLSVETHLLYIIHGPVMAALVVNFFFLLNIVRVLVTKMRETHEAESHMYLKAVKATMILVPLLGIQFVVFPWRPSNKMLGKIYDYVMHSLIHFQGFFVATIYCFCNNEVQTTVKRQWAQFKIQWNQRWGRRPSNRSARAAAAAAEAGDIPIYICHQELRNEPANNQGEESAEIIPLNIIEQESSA
T1 sequence (looked up) 2: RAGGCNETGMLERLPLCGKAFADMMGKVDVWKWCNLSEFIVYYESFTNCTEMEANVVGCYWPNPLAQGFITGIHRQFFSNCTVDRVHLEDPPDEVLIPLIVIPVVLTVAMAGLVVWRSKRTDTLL
The assay can be described thus: cell-based or functional assay.

B1: Cmpd 1 (peptide)
peptide: KCNTATCATQRLANFLVRSSNNLGPVLPPTNVGSNTY
modifications: C-terminal amide (-NH2)
notes: also called Compound 1
For the molecule B1, the “EC50 (nM), cAMP accumulation (HTRF)” value worked out at 0.005 nM.
